# Source: the NIST ThermoML archive (doi:10.1021/acs.jced.9b00658)
# What was measured:
# [1] = Molar enthalpy of transition or fusion; conditions: Crystal; DSC
# [2] = Crystal; DSC
compound,measurement,setting,value
"COC(=O)c1ccc(C(=O)OC)cc1 [dimethyl 1,4-benzenedicarboxylate]",Molar enthalpy of transition or fusion,[1],6.73 ± 0.98 kcal/mol
same,Triple point temperature,[2],413.88 ± 1 K

# Numbers after ± are expanded uncertainties.
